According to ChEMBL document CHEMBL1127404 (J Med Chem, 1994):

Target: Prothrombin (Homo sapiens, UniProt P00734)
Assay: In vitro binding affinity by measuring the inhibition of human thrombin

CC1CNc2c(cccc2S(=O)(=O)N[C@@H](CCCNC(=N)N)C(=O)N2CC[C@@H](C)C[C@@H]2C(=O)O)C1 (stereo partly specified) [ARGATROBAN]
Ki: 20 nM
